In PubChem BioAssay (NCI):
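A five-concentration, 48-hour dose response in 96-well plates underlies each endpoint, interpolated linearly between surrounding concentrations. Here, GI50 denotes the concentration required for 50% inhibition of growth. TGI: concentration producing complete growth inhibition.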

Legend:
Experiment in all cases: NCI anticancer screen, dose series, 48 h
[1] = tested on: EKVX NSCLC
[2] = tested on: HT29 colon
[3] = tested on: A549 NSCLC
[4] = tested on: MOLT-4 leukemia
[5] = tested on: IGROV1 ovarian
[6] = tested on: OVCAR-8 ovarian
[7] = tested on: PC-3 prostate
[8] = tested on: HOP-62 NSCLC
[9] = tested on: SNB-75 CNS
[10] = tested on: CCRF-CEM leukemia
[11] = tested on: HCC-2998 colon
[12] = tested on: NCI/ADR-RES ovarian
[13] = tested on: SF-268 CNS
[14] = tested on: HOP-92 NSCLC
[15] = tested on: NCI-H226 lung
[16] = tested on: OVCAR-3 ovarian
[17] = tested on: UO-31 renal
[18] = tested on: NCI-H522 lung
[19] = tested on: NCI-H23 lung
[20] = tested on: SNB-19 CNS
[21] = tested on: KM12 colon
[22] = tested on: CAKI-1 renal
[23] = tested on: U251 CNS
[24] = tested on: COLO 205 colon
[25] = tested on: LOX IMVI melanoma
[26] = tested on: SK-OV-3 ovarian
[27] = tested on: SW-620 colon
[28] = tested on: NCI-H460 lung
[29] = tested on: MCF7 breast
[30] = tested on: TK-10 renal
[31] = tested on: HS 578T breast
[32] = tested on: 786-0 renal
[33] = tested on: ACHN renal
[34] = tested on: MALME-3M melanoma
[35] = tested on: BT-549 breast
[36] = tested on: MDA-MB-231 breast
[37] = tested on: SK-MEL-28 melanoma
[38] = tested on: SR leukemia
[39] = tested on: DU-145 prostate
[40] = tested on: SN12C renal
[41] = tested on: OVCAR-4 ovarian
[42] = tested on: RPMI-8226 leukemia
[43] = tested on: SK-MEL-5 melanoma
[44] = tested on: A498 renal
[45] = tested on: T-47D breast
[46] = tested on: SK-MEL-2 melanoma
[47] = tested on: M14 melanoma
[48] = tested on: UACC-257 melanoma
[49] = tested on: MDA-MB-435
[50] = tested on: UACC-62 melanoma
[51] = tested on: HL-60(TB) leukemia
[52] = tested on: SF-539 CNS
[53] = tested on: RXF 393 renal
[54] = tested on: SF-295 CNS
[55] = tested on: HCT-15 colon
[56] = tested on: OVCAR-5 ovarian
[57] = tested on: HCT-116 colon
[58] = tested on: NCI-H322M lung

O=C(Nc1cc([As](=O)(O)O)ccc1O)c1ccccc1
GI50 [1]: > 100 µM
TGI [1]: > 100 µM
GI50 [2]: > 100 µM
TGI [2]: > 100 µM
GI50 [3]: > 100 µM
TGI [3]: > 100 µM
GI50 [4]: > 100 µM
TGI [4]: > 100 µM
GI50 [5]: > 100 µM
TGI [5]: > 100 µM
GI50 [6]: > 100 µM
TGI [6]: > 100 µM
GI50 [7]: > 100 µM
TGI [7]: > 100 µM
GI50 [8]: > 100 µM
TGI [8]: > 100 µM
GI50 [9]: > 100 µM
TGI [9]: > 100 µM
GI50 [10]: > 100 µM
TGI [10]: > 100 µM
GI50 [11]: > 100 µM
TGI [11]: > 100 µM
GI50 [12]: > 100 µM
TGI [12]: > 100 µM
GI50 [13]: > 100 µM
TGI [13]: > 100 µM
GI50 [14]: > 100 µM
TGI [14]: > 100 µM
GI50 [15]: > 100 µM
TGI [15]: > 100 µM
GI50 [16]: > 100 µM
TGI [16]: > 100 µM
GI50 [17]: > 100 µM
TGI [17]: > 100 µM
GI50 [18]: > 100 µM
TGI [18]: > 100 µM
GI50 [19]: > 100 µM
TGI [19]: > 100 µM
GI50 [20]: > 100 µM
TGI [20]: > 100 µM
GI50 [21]: > 100 µM
TGI [21]: > 100 µM
GI50 [22]: > 100 µM
TGI [22]: > 100 µM
GI50 [23]: > 100 µM
TGI [23]: > 100 µM
GI50 [24]: > 100 µM
TGI [24]: > 100 µM
GI50 [25]: > 100 µM
TGI [25]: > 100 µM
GI50 [26]: > 100 µM
TGI [26]: > 100 µM
GI50 [27]: > 100 µM
TGI [27]: > 100 µM
GI50 [28]: > 100 µM
TGI [28]: > 100 µM
GI50 [29]: > 100 µM
TGI [29]: > 100 µM
GI50 [30]: > 100 µM
TGI [30]: > 100 µM
GI50 [31]: > 100 µM
TGI [31]: > 100 µM
GI50 [32]: > 100 µM
TGI [32]: > 100 µM
GI50 [33]: > 100 µM
TGI [33]: > 100 µM
GI50 [34]: > 100 µM
TGI [34]: > 100 µM
GI50 [35]: > 100 µM
TGI [35]: > 100 µM
GI50 [36]: > 100 µM
TGI [36]: > 100 µM
GI50 [37]: > 100 µM
TGI [37]: > 100 µM
GI50 [38]: > 100 µM
TGI [38]: > 100 µM
GI50 [39]: > 100 µM
TGI [39]: > 100 µM
GI50 [40]: > 100 µM
TGI [40]: > 100 µM
GI50 [41]: > 100 µM
TGI [41]: > 100 µM
GI50 [42]: > 100 µM
TGI [42]: > 100 µM
GI50 [43]: > 100 µM
TGI [43]: > 100 µM
GI50 [44]: > 100 µM
TGI [44]: > 100 µM
GI50 [45]: > 100 µM
TGI [45]: > 100 µM
GI50 [46]: > 100 µM
TGI [46]: > 100 µM
GI50 [47]: > 100 µM
TGI [47]: > 100 µM
GI50 [48]: > 100 µM
TGI [48]: > 100 µM
GI50 [49]: > 100 µM
TGI [49]: > 100 µM
GI50 [50]: > 100 µM
TGI [50]: > 100 µM
GI50 [51]: > 100 µM
TGI [51]: > 100 µM
GI50 [52]: > 100 µM
TGI [52]: > 100 µM
GI50 [53]: > 100 µM
TGI [53]: > 100 µM
GI50 [54]: > 100 µM
TGI [54]: > 100 µM
GI50 [55]: > 100 µM
TGI [55]: > 100 µM
GI50 [56]: > 100 µM
TGI [56]: > 100 µM
GI50 [57]: > 100 µM
TGI [57]: > 100 µM
GI50 [58]: > 100 µM
TGI [58]: > 100 µM
